Measured affinities in a library of Ab-14 light chain variants

The target is the same throughout: PDVDLGDISGINAS, from the HR2 region of SARS-CoV-2 spike.

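The starting antibody came from a phage panning campaign against this peptide. Designed CDR sequences, proposed from the first random library and measured here. Group labels follow the data file (Ctrl: baseline library sampled from a position-specific scoring matrix, with some repeated check sequences; En: ensemble of fine-tuned language models; GP: Gaussian process model; HC: hill climbing; Gen: genetic algorithm; Gibbs: Gibbs sampling; a sequence that several methods proposed may carry one label only). The scFvs were displayed on barcoded MATa yeast, the peptide on MATalpha yeast. After mating in shaken culture at 30 °C for 16 h, diploids were selected and their barcode pairs sequenced. Each replicate has its own calibration line, from reference interactions of the BCL2 family. The assay was run in six technical replicates.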

Parent: Ab-14, a human scFv built as VH, the linker GGGGSGGGGSGGGGS, VL. Only the CDRs of the light chain vary.
VH: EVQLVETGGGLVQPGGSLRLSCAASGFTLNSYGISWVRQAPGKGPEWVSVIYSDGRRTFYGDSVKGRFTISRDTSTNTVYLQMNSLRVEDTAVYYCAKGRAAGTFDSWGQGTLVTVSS
VL: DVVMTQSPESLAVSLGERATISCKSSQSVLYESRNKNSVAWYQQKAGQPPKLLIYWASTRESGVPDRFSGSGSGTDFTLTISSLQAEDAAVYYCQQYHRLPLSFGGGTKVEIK

Each variant is given by its three light chain CDRs, as the data file delimits them; those of the parent are KSSQSVLYESRNKNSVA, WASTRES, QQYHRLPLS.
Variants here have more than six changes.
Each Kd is an estimate from the mating assay, the geometric mean of the replicates in which the pair was seen; lower is stronger.
"no signal" means that the variant was in the library but no mating with the target was seen in any replicate; the authors take this as a sign of poor binding, and no number exists.
The range of this assay differs from that of the first round, and the authors advise against merging the two.
Of ten entries with the parent sequence, four were seen in most replicates (averages 2.2 nM to 240 nM), three in one and three in none, so single entries are noisy.
The authors' rule: three or more of the six replicates give a measured affinity, fewer mean a poor binder.
As a blank, each scFv also met three strains without target: over all light chain designs, 4% of these pairings were detected, typically at 430 nM and seldom below 38 nM. Also given: how often the same scFv was detected with the empty control strains.

With KLSQSVLKESSNANSVA / KASTRER / QQYHRIPFS [Ctrl] the result was 44 nM (6 of 6 replicates; controls 3 of 18). The variant QMRVSLSQGIYRQDSVA / STDIRVL / QQYHHLPLS [En_Gibbs] showed 5.9 nM (6 of 6 replicates; controls 2 of 18). The variant KFAQGIYEPKRHSHNIA / EASHVCD / QQYARLPLE [En_Gibbs] gave 730 pM (5 of 6 replicates; controls 0 of 18). The variant KLSGSVMMLSRADNSVA / DASTRES / QQYHRLPLS [GP_Gibbs] gave 14 nM (6 of 6 replicates; controls 0 of 18). With MVNGIMDHLSKQTNNVA / ETTTRES / QQYDRLPLQ [En_Gen] the result was 4.6 nM (6 of 6 replicates; controls 2 of 18). For KLQQSWEYESRNSNNVA / QASTRMS / QQYHRLPLS [GP_Gibbs], the assay gave 400 pM (6 of 6 replicates; controls 1 of 18). With MLDNCQAGYYQKNNNVA / EMNMRCY / QQYGRLPLM [En_Gibbs] the result was 250 nM (3 of 6 replicates; controls 0 of 18). The variant KLSQSELYMDRNANNVA / NASTRMS / QQYHRLPLS [GP_Gibbs] showed 390 pM (6 of 6 replicates; controls 0 of 18). The variant TISQSALMTGLNRNSVA / QAEERIE / QQYHRLPLS [En_HC] showed 2.3 nM (6 of 6 replicates; controls 0 of 18).

For IISQVDAYLSRNTNSIA / DQSTRGS / QQYDRLPLS [En_HC], the assay gave 25 nM (6 of 6 replicates; controls 0 of 18). For KQQILVEQESRQKNSVA / NASKRES / QQYHRLPLS [GP_Gibbs], the assay gave 2.8 nM (6 of 6 replicates; controls 0 of 18). The variant TISQMTSLFSQSINNVA / EVSMRES / QQYDRLPLA [En_Gen] gave 20 nM (6 of 6 replicates; controls 1 of 18). With MISQLYNMGQFAINSVA / QASVRNA / QQYDRLPLM [En_Gen] the result was 31 nM (6 of 6 replicates; controls 0 of 18). The variant IVSQLMIWGMHVKNSIA / EAELRLN / QQYDRLPLF [En_Gen] gave no signal (0 of 6 replicates; controls 0 of 18). For KLWLAMDMFQGEASAVA / DQQLTRD / QQYARLPLS [En_Gibbs], the assay gave 450 nM (1 of 6 replicates; controls 0 of 18). With TISMVMNHMSRNENNVA / NMDMRSN / QQYDRLPLS [En_Gen] the result was 2.3 nM (6 of 6 replicates; controls 1 of 18). The variant KLSMTHGMELKNRNSVA / ELVTRMS / QQYNRLPLS [En_Gen] gave 41 nM (5 of 6 replicates; controls 0 of 18). For KIGMTLNQLMHHKNNVA / DLVTREN / QQYHRLPLS [En_Gen], the assay gave 3.7 nM (6 of 6 replicates; controls 1 of 18).

With HSSPSWLYDSRNKNHVA / DATTRES / QQYHRLPLT [En_Gibbs] the result was 420 pM (6 of 6 replicates; controls 0 of 18). With MITAGLRGVGRNKNSVA / NAQTRES / QHYHRLPLS [En_HC] the result was 570 nM (6 of 6 replicates; controls 1 of 18). The variant KQSQSVMQEERNKNSVA / AASDREV / QQYHRLPLS [GP_Gibbs] showed 88 nM (2 of 6 replicates; controls 0 of 18). For RFTEHLLGLENKIYAIA / NATKTME / QQYFRLPFA [En_Gibbs], the assay gave 440 pM (6 of 6 replicates; controls 0 of 18). With HFDQTRQEGIQDKNSVA / QGSVVAS / QHYSKLPLS [En_Gibbs] the result was 42 nM (6 of 6 replicates; controls 0 of 18). The variant MINMEIGIEDSKWQAVA / SNSVRAS / QQYGRLPFS [En_Gibbs] gave 320 nM (5 of 6 replicates; controls 1 of 18). The variant KLSQSFMYEERNPNSVA / NASKRES / QQYHRLPLS [GP_Gibbs] gave 570 pM (6 of 6 replicates; controls 0 of 18). For KLSQEVEYESRLKNSVA / NASTRLE / QQYHRLPLS [GP_Gibbs], the assay gave 1.6 nM (6 of 6 replicates; controls 1 of 18). For TLYGLSMSMAKNKNNVA / EMSTREK / QQYDRLPLI [En_Gen], the assay gave 1.5 nM (6 of 6 replicates; controls 0 of 18).

With AIYSTGYQVDSQMQAIA / DGHERIS / QQYFRLPLN [En_Gibbs] the result was 2.3 nM (6 of 6 replicates; controls 1 of 18). With TISQSTYWEERNKNSVA / QTSTREE / QDYDRLPLS [En_HC] the result was 25 nM (6 of 6 replicates; controls 1 of 18). The variant KLQAQQEYWSRNKNSVA / QASTRED / QQYHRLPLS [GP_Gibbs] showed 670 pM (6 of 6 replicates; controls 0 of 18). The variant KLSNSVWMESRNKNNVA / HASKRES / QQYHRLPLS [GP_Gibbs] gave 110 nM (1 of 6 replicates; controls 0 of 18). For NVHALDAISQEFQNNVA / GQDCRDA / QQYFRLPLA [En_Gibbs], the assay gave 8.9 nM (5 of 6 replicates; controls 0 of 18). The variant KFEQWMFSQNRDDNSIA / HADDLVT / QQYSQLPLT [En_Gibbs] gave 9.6 nM (6 of 6 replicates; controls 1 of 18). With NVDISQNTNYNHKANVA / DHDERVG / QQYSRLPLS [En_Gibbs] the result was 480 pM (6 of 6 replicates; controls 1 of 18). For KSSLHVLYDSRNTNSVA / NASTRNV / QQYHRLPLS [Ctrl], the assay gave 830 pM (6 of 6 replicates; controls 2 of 18). The variant KLSMVTGHQLMSKDNVA / EMETREN / QQYDRLPLS [En_Gen] showed 2.9 nM (3 of 6 replicates; controls 0 of 18).

The variant ALGDVTRMEQNKKNSIA / DMSTRES / QQYHRLPLS [En_HC] gave 680 pM (6 of 6 replicates; controls 0 of 18). The variant KLSQSELYESAAKNSVA / NAMQRMS / QQYHRLPLS [GP_Gibbs] gave 770 pM (6 of 6 replicates; controls 3 of 18).

Data: MIT Lincoln Laboratory AlphaSeq set, Li et al. 2023, doi:10.1038/s41467-023-39022-2, as distributed in FLAb.